## Apparent affinities of Ab-14 variants for a coronavirus HR2 peptide

The measurements come from Li et al. 2023 (doi:10.1038/s41467-023-39022-2) through the FLAb antibody collection.

The target is the same throughout: PDVDLGDISGINAS, from the HR2 region of SARS-CoV-2 spike.

Parent: Ab-14, a human scFv built as VH, a 15-residue (Gly4Ser)3 linker, VL. Only the CDRs of the light chain vary.
VH: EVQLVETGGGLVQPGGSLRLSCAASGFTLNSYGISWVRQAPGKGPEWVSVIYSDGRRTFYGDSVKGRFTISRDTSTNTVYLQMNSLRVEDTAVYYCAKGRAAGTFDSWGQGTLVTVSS
VL: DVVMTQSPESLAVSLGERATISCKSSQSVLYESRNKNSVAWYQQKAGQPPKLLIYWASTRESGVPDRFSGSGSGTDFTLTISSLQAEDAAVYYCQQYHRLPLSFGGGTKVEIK

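Phage display of a naive human antibody library on the peptide gave the parent. These sequences belong to a second round, designed from the earlier measurements on random variants of the parent. Group labels follow the data file (Ctrl: baseline library sampled from a position-specific scoring matrix, with some repeated check sequences; En: ensemble of fine-tuned language models; GP: Gaussian process model; HC: hill climbing; Gen: genetic algorithm; Gibbs: Gibbs sampling; a sequence that several methods proposed may carry one label only). AlphaSeq pools MATa yeast showing the antibodies with MATalpha yeast showing the peptide. After mating in shaken culture at 30 °C for 16 h, diploids were selected and their barcode pairs sequenced. A regression on co-assayed BCL2-family reference pairs converts the normalised counts of each replicate to an apparent Kd. There are six technical replicates.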

The parent's light chain CDRs are KSSQSVLYESRNKNSVA, WASTRES, QQYHRLPLS; each variant's own CDRs replace them letter for letter. Variants here have more than six changes. Kd is apparent (estimated from mating counts) and averaged on the log scale over replicates with a signal. Smaller is tighter. A pair that was not seen in any replicate is written "nd"; this usually means weak binding, but a binder can also be missed. Order: sorted from the lowest average up, undetected variants last. Of ten entries with the parent sequence, four were seen in most replicates (averages 2.2 nM to 240 nM), three in one and three in none, so single entries are noisy. A sequence measured in both rounds can read differently, since the two assays cover different ranges. In the paper, a design with two or fewer of six values counts as a poor binder. Empty control strains, which show no peptide, gave a signal in 4% of pairings with all light chain designs; the median was 430 nM and 95% of these signals were weaker than 38 nM. No background was subtracted.

CDR-L1	CDR-L2	CDR-L3	group	Kd	detected
MISDLTMYGSRNKNNVA	DLSTRGS	QQYHRLPLS	En_HC	320 pM	6 of 6
HFLSLSLHQTGTLNSVA	DAEERQE	QQYMRLPLM	En_Gibbs	860 pM	6 of 6
FIMHFGEESNLNSKNIA	AKDTRVD	QQYNRLPLS	En_Gibbs	920 pM	6 of 6
KFMQSVPYESRNLNNVA	HGSTRES	QQYHRLPLS	GP_Gibbs	1.0 nM	6 of 6
HSNGQLVMGERNQNHVA	STDVRAS	QQYSRLPFT	En_Gibbs	1.1 nM	6 of 6
KLGQMTGIESHAKNSLA	DANRRES	QQYHRLPLS	En_HC	1.1 nM	6 of 6
TLGGVTSYEMQNVNSVA	QMTTRES	QQYHRLPLS	En_HC	1.1 nM	6 of 6
KLVNSELYESRQKNSVA	QASQREM	QQYHRLPLS	GP_Gibbs	1.1 nM	6 of 6
KVSNSVDGQDRNKNAVA	EASTRES	QQYHRLPLS	GP_Gibbs	1.2 nM	6 of 6
MAYGGDMMESVTRNSVA	NAETRAD	QDYHRLPLS	En_HC	1.3 nM	6 of 6
KISQSELYESRNKNSIA	NANQREQ	QQYHRLPLS	GP_Gibbs	1.3 nM	6 of 6
KLTSVTGTEKVRGNNVA	EMETREK	QQYNRLPLA	En_Gen	1.4 nM	6 of 6
KLSMITGHMQTEKNNVA	EMVTREN	QQYNRLPLS	En_Gen	2.0 nM	6 of 6
KIGGVTNGISRSKNSVA	EQSTRND	QQYDRLPLS	En_HC	2.2 nM	6 of 6
KFDQEVWYESRNKNSVA	GASQRCS	QQYHRLPLS	GP_Gibbs	2.3 nM	6 of 6
KIGATLNTLSHKQNNVA	DLVTREN	QQYYRLPLS	En_Gen	2.9 nM	6 of 6
TVSQVTGMLSHNKNSVA	DMNTRGS	QQYDRLPLS	En_HC	2.9 nM	6 of 6
KLSESAHFESRKKNSIA	ENSTRES	QQYYHLPLS	En_HC	3.0 nM	6 of 6
KIQHQHVGNWKTMNNIA	QGDQRCQ	QSYDRLPLS	En_Gibbs	3.5 nM	6 of 6
MIGQMMGWESNKIHSVA	QANLRVD	QQYDRLPLE	En_Gen	3.8 nM	6 of 6
RVQINSGHSDMHWKSIA	SASIRAS	QQYERLPLE	En_Gibbs	4.3 nM	6 of 6
KIGATLNQLMHKKNNVA	DLVMREN	QQYFRLPLS	En_Gen	5.1 nM	6 of 6
KLTEQDFLGERRQSNIA	AGVMTSY	QQYHHLPLM	En_Gibbs	5.2 nM	6 of 6
SFPESLRQQQTNVNAVA	GAQHTAV	QQYGRLPLT	En_Gibbs	5.3 nM	6 of 6
KIQDNLGELLQQINSVA	STEEKSD	QSYMRLPLI	En_Gibbs	7.0 nM	6 of 6
KISQMVRVGSTVKNSIA	EMVTRAN	QQYHRLPLA	En_Gen	7.5 nM	6 of 6
MIGEMLMQGAYKRNSVA	QANIRAQ	QHYHRLPLE	En_Gen	7.6 nM	6 of 6
MLPESMPQQIDNQNPVA	GAQHTAV	QQYDRLPLT	En_Gibbs	7.8 nM	6 of 6
KVSQAQDYESRNKNSVA	QASHREQ	QQYHRLPLY	GP_Gibbs	8.5 nM	6 of 6
KFEQLDGGESRNKNSVA	NASQRED	QQYHRLPLS	GP_Gibbs	9.7 nM	6 of 6
HITYGMQVMGRHSKSIA	QAEERAR	QQYDRLPLE	En_Gen	10 nM	6 of 6
MLLQSTMYGERNRNSVA	HASTRND	QQYHRLPLI	En_HC	12 nM	6 of 6
KLRQLTVIESFNKNNVA	EMSTRES	QSYDRLPLS	En_HC	13 nM	6 of 6
KVQLGLERYNGDYSAVA	NETQKGD	QQYFQLPLG	En_Gibbs	14 nM	6 of 6
TISQSVLMTGLNRNSVA	QAEERLE	QQYHRLPLS	En_HC	17 nM	6 of 6
KQQFSVLQESRQCNSVA	EASTREE	QQYHRLPLS	GP_Gibbs	17 nM	1 of 6
IVSQLMLWGLHAKNSIA	EAATRYN	QQYERLPLF	En_Gen	19 nM	2 of 6
TISQLMLYESRNKNNVA	GTSTRES	QCYHRLPLS	En_HC	19 nM	6 of 6
KINGVLINFGEDMNAIA	QENISNL	QQYFHLPLS	En_Gibbs	38 nM	4 of 6
MFSSLMEYGQRYKNSVA	QASVREN	QQYHWLPLS	En_HC	52 nM	6 of 6
IISGMMLMESRNKNSVA	NAETREY	QHYDRLPLS	En_HC	83 nM	6 of 6
QLSGPMMMESRNKNSVA	EFSTRGS	QQYHRLPLS	En_HC	110 nM	6 of 6
HITSNMFGTIGVESNVA	ETNTLLV	QQYSKLPLM	En_Gibbs	140 nM	6 of 6
KVSQSQISESTNKNSVA	EASTRES	QQYHRLTWS	Ctrl	170 nM	1 of 6
TISNSFMMENQFKNSVA	QASTREE	QCYDRLPLS	En_HC	220 nM	6 of 6
KFGQMVLMGSYVRNSVA	QSSTREN	QQYDRLPLS	En_HC	240 nM	6 of 6
QISLNGEDGEPYEDAVA	EGSIADA	QQYHRLPLS	En_Gibbs	240 nM	3 of 6
HMSMLTLQGQRHRNAVA	QMTTREN	QQYDRLPLT	En_Gen	nd	0 of 6
TISQSWFIESRNKNNVA	EMTTREN	QDYDRLPLS	En_HC	nd	0 of 6

Excerpt, the final 5 entries:

CDR-L1	CDR-L2	CDR-L3	group	Kd	detected
TISNSFMMENQFKNSVA	QASTREE	QCYDRLPLS	En_HC	220 nM	6 of 6
KFGQMVLMGSYVRNSVA	QSSTREN	QQYDRLPLS	En_HC	240 nM	6 of 6
QISLNGEDGEPYEDAVA	EGSIADA	QQYHRLPLS	En_Gibbs	240 nM	3 of 6
HMSMLTLQGQRHRNAVA	QMTTREN	QQYDRLPLT	En_Gen	nd	0 of 6
TISQSWFIESRNKNNVA	EMTTREN	QDYDRLPLS	En_HC	nd	0 of 6